# Binding of CDR-mutated scFvs to a peptide of the spike HR2 region

All variants were tested on one target, the spike HR2 peptide PDVDLGDISGINAS (SARS-CoV-2).

Parent: Ab-91, a human scFv built as VL, three GGGGS repeats, VH. Only the CDRs of the heavy chain vary.
VL: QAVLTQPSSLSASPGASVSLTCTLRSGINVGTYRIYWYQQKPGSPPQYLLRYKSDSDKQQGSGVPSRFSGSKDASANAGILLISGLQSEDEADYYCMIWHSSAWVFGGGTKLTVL
VH: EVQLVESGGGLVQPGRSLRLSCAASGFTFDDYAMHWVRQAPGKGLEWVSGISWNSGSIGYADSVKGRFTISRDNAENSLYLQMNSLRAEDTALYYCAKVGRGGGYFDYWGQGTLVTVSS

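The parent was found by panning a naive human phage display library on the peptide. AAYL51 was designed without a model: most single CDR substitutions and a random sample of double and triple ones. The assay is AlphaSeq: two haploid yeast populations carry antibody and antigen on their surface. Mating (16 h, 30 °C) was followed by selection of diploids and sequencing of their barcodes. Each replicate has its own calibration line, from reference interactions of the BCL2 family. Mating was done three times.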

Changes read parent residue, position, new residue, counted from the first residue of the VH shown.
Numbers give log10(Kd / nM), so 0 is 1 nM and 3 is 1 µM. Smaller is tighter.
A pair that was not seen in that replicate is written "n.d."; this usually means weak binding, but a binder can also be missed.
Background: pairings of library AAYL51 with three empty control strains gave a value in 21% of cases (median 4.54, 5th percentile 3.26). Values in that range, when seen in few replicates, are hard to tell from nonspecific mating. Also given: how often the same scFv was detected with the empty control strains, with their mean in brackets.

| changes | log10 Kd, replicates | control signals |
|---|---|---|
| G26D F29A G100T | n.d. n.d. n.d. | 0 of 9 |
| G50Y I58C Y108S | n.d. n.d. n.d. | 2 of 9 (4.10) |
| D31G D62E Y105K | 3.90 3.20 3.25 | 4 of 9 (4.37) |
| W53C S57Q G102C | 4.54 3.93 n.d. | 2 of 9 (4.08) |
| D30M S57N | n.d. n.d. n.d. | 2 of 9 (4.25) |
| I51L S55A | 2.70 3.14 n.d. | 0 of 9 |
| S57P Y108P | n.d. n.d. n.d. | 0 of 9 |
| Y32L N54G D107C | 4.96 4.38 n.d. | 5 of 9 (4.73) |
| M34S | 4.53 n.d. n.d. | 4 of 9 (4.91) |
| T28D F29N D62N | 4.99 n.d. 5.40 | 2 of 9 (4.21) |
| F29Q G59V F106H | 6.01 n.d. 6.00 | 2 of 9 (5.05) |
| Y32N H35D F106M | 2.62 3.42 2.27 | 2 of 9 (3.72) |
| F27N F29C G56D | n.d. 4.80 n.d. | 5 of 9 (5.02) |
| N54E Y60C A61L | 4.62 n.d. n.d. | 2 of 9 (4.87) |
| K65R | 4.71 n.d. 5.48 | 3 of 9 (5.16) |
| I51L R101A G102I | n.d. n.d. n.d. | 3 of 9 (3.54) |
| I58M G104C Y108K | 1.74 2.01 1.89 | 4 of 9 (4.62) |
| A33R R101F | n.d. 4.39 3.92 | 4 of 9 (4.59) |
| R101I G103F D107G | n.d. n.d. n.d. | 4 of 9 (4.27) |
| D30H G102I Y108Q | 1.63 1.58 1.07 | 5 of 9 (4.36) |
| D30K N54D G59H | 5.91 4.69 4.34 | 6 of 9 (5.20) |
| A33I G59D G104Q | n.d. 5.16 n.d. | 3 of 9 (4.56) |
| F27D T28A Y60S | n.d. n.d. n.d. | 4 of 9 (4.28) |
| T28K D30E Y32Q | n.d. n.d. n.d. | 0 of 9 |
| S57V G59A F106S | 3.30 4.95 4.30 | 0 of 9 |
| G50Q S55R Y60F | n.d. n.d. n.d. | 1 of 9 (3.98) |
| D30Q S52I Y60G | n.d. n.d. n.d. | 1 of 9 (4.10) |
| M34N W53S G103V | n.d. n.d. 3.86 | 3 of 9 (5.06) |
| T28A S52K Y105Q | n.d. 3.49 n.d. | 2 of 9 (3.33) |
| F27D G56C | 5.48 4.14 4.89 | 3 of 9 (5.56) |
| N54F G56S Y60E | 6.18 n.d. n.d. | 0 of 9 |
| W53G V99L | 5.41 4.87 n.d. | 8 of 9 (4.89) |
| A61G G100Y R101H | 4.79 n.d. 4.76 | 2 of 9 (4.40) |
| F27R T28I F29I | n.d. n.d. n.d. | 0 of 9 |
| A61Q R101C G102V | 1.23 1.24 0.75 | 3 of 9 (5.31) |
| A61P G104H | 6.26 n.d. 5.29 | 4 of 9 (5.38) |
| T28F D30I V64E | n.d. 5.25 n.d. | 3 of 9 (4.53) |
| H35I W53L G100H | n.d. 5.25 4.49 | 4 of 9 (4.53) |
| D31N I58P V64T | 4.50 4.98 n.d. | 5 of 9 (4.58) |
| G59Q V64L G103K | 4.38 n.d. n.d. | 0 of 9 |
| D30E I51K G103V | 3.69 4.66 n.d. | 1 of 9 (4.75) |
| S52D W53V S63T | n.d. n.d. n.d. | 0 of 9 |
| D62R K65G Y105E | 2.87 2.78 2.16 | 0 of 9 |

For reference, the parent read 1.86 as the reference entry and 0.88 as a member of this library.

Reference: Engelhart et al. 2022, doi:10.1038/s41597-022-01779-4. File: FLAb, binding data.